Results published in patent US5294609A, “DNA gyrase inhibitors and pharmaceutical preparations therefor” (Hoffmann-LaRoche Inc., priority 1991, dated 1994).

Columns and labels:
E. coli DC2 = assay: Antibacterial activity in vitro (MIC, agar dilution); type: cell-based; settings: Escherichia coli, agar dilution (BB2 + 1% Isovitalex + 7.5% sheep blood + metadione), inoculum 10^4 CFU/spot, read-out: minimum inhibitory concentration (MIC)
Text: (§1) In the following table there are complied the minimum inhibitory concentrations (MIC; μg/ml) of some representative compounds of formula I against a series of pathogenic microorganisms.
(§2) Agar dilution (BB2 + 1% Isovitalex + 7.5% sheep blood + metadione),
(§3) Inoculum: 10^4 CFU/spot;

N. meningitidis 69480 = assay: as above; type: cell-based; settings: Neisseria meningitidis, agar dilution (BB2 + 1% Isovitalex + 7.5% sheep blood + metadione), inoculum 10^4 CFU/spot, read-out: minimum inhibitory concentration (MIC)
Text: as §1, §2, §3

Structure (SMILES): COC(=O)[C@@H]1CSCc2c(O)cc(OC)c(C)c2C(=O)OC[C@H](O)C(=O)N1 [Example 41, methyl (4R,7S)-1,3,4,5,6,7,8,10-octahydro-7,14-dihydroxy-12-methoxy-11-methyl-6,10-dioxo-9,2,5-benzoxathiaazacyclododecine-4-carboxylate]
- MIC (E. coli DC2): 64 µg/mL

Structure (SMILES): CCOC(=O)[C@@H]1CSCc2c(O)cc(OC)c(C)c2C(=O)OC[C@H](NC=O)C(=O)N1 [Example 69, ethyl (4R,7S)-7-formamido-1,3,4,5,6,7,8,10-octahydro-14-hydroxy-12-methoxy-11-methyl-6,10-dioxo-9,2,5-benzoxathiaazacyclododecine-4-carboxylate]
- MIC (N. meningitidis 69480): 2 µg/mL
